Tested on: influenza A virus (strain A/PR/8/34)
Type: cell-based

NC(=O)c1ncn([C@@H]2O[C@H](CO)[C@@H](O)[C@H]2O)n1 [Ribavirin, reference compound]
SI (selectivity index, ratio between CC50 and EC90): >24

Source: PMC4980666, “N-acylhydrazone inhibitors of influenza virus PA endonuclease with versatile metal binding modes” (Scientific Reports, 2016)
